Assays:
[1] = target: T1, Mitogen-activated protein kinase 14 (Homo sapiens, UniProt Q16539); experiment: Binding affinity to unphosphorylated p38alpha by fluoroprobe binding assay
[2] = target: RAF proto-oncogene serine/threonine-protein kinase (Homo sapiens, UniProt P04049); experiment: Inhibition of CRAF
[3] = target: T1, Mitogen-activated protein kinase 14; experiment: Inhibition of p38alpha by fluoroprobe binding assay

Sequences of proteins named here, by UniProt entry; tags and fusion partners are left off.
UniProt Q16539, whole entry: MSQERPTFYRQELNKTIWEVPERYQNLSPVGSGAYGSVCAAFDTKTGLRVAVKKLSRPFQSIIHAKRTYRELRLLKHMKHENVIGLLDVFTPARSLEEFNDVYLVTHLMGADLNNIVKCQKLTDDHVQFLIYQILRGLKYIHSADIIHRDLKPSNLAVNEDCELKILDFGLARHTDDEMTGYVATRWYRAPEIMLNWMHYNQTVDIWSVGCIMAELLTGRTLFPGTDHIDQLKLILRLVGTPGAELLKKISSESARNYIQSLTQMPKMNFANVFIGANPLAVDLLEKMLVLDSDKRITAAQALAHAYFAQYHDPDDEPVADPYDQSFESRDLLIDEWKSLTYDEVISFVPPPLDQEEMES

CC(C)(C)c1cc(NC(=O)Nc2cccc(Cl)c2Cl)n(-c2cccc(CC(N)=O)c2)n1
IC50 [1]: 9 nM
IC50 [2]: 11 nM

CC(C)(C)c1cc(NC(=O)Nc2cccc3ccccc23)n(-c2ccc(CO)cc2)n1
IC50 [3]: 27 nM

NC(=O)Cc1cccc(-n2nc(-c3cccs3)cc2NC(=O)Nc2cccc(Cl)c2Cl)c1
IC50 [1]: 48 nM

Source: ChEMBL document CHEMBL1268872 (Bioorg Med Chem Lett, 2010)
